{"source": "paper PMC11496845", "about": "“Preparation, characterization, and in vitro cytogenotoxic evaluation of a novel dimenhydrinate-β-cyclodextrin inclusion complex” (Biomolecules and Biomedicine, 2024)", "key": {"PBMCs [1]": {"test_system": "PBMCs", "assay": "Alkaline comet assay, tail intensity", "conditions": "3 h", "description": "Blood was collected by venipuncture into heparinized vacutainers (BD Vacutainer Systems, Plymouth, UK), stored at room temperature, protected from light, and processed within 2 h. PBMCs were isolated by density gradient centrifugation (400 × g, 30 min) with separation medium (Histopaque® - 1077). After isolation, PBMCs were stained with Trypan blue and counted using a hemocytometer.\nThe comet assay is a sensitive technique for measuring DNA damage at the level of the individual eukaryotic cell. It is based upon the fact that denatured cleaved DNA fragments, or damaged DNA, migrate out of the cell at a different rate during electrophoresis than undamaged DNA [32]. Damaged DNA creates a “comet tail,” while the undamaged DNA remains within the cell membrane creating the “comet head.” The Comet assay is most commonly run under alkaline conditions to detect single and double-stranded DNA breaks.\nPBMCs were isolated as previously described and then cultivated in PB-MAX™ Karyotyping Medium and incubated for 24 h at 37 ^∘C. […] Positive and negative controls were also set up equally. Treated cells were incubated at 37 ^∘C for 3 h and then centrifuged at 800 rpm (120 × g) for 5 min. The supernatant was removed and the cells were subsequently resuspended.\nIn a tube containing 120 µL of 0.7% LMPA, 80 µL of the sample was added for each tested concentration and controls. Prepared samples were applied to slides precoated with a 1% NMPA and covered with coverslips. After gel polymerization, coverslips were removed and slides were immersed in lysis buffer overnight at 4 ^∘C. Afterward, slides were washed with distilled water and placed into the electrophoresis tank with an electrophoresis solution (200 mM Na2EDTA, 10 M NaOH, and distilled water, pH > 13) for 20 min, followed by 20 min of electrophoresis (1 V/cm). After electrophoresis, slides were gently rinsed in the following sequences: phosphate-buffered saline (PBS) for 5 min, 70% (V/V) ethanol for 5 min, and finally 96% (V/V) ethanol for 15 min.\nPrior to the fluorescent microscope analysis (U-MNU2; Olympus BX51, Tokyo, Japan), slides were rehydrated and stained with DAPI (1 µg/mL). DNA damage in treated cells was evaluated using Comet Assay IV software (Instem LSS Ltd., Staffordshire, UK), by measuring tail intensity (TI%), the percent of DNA in the tail of comets. For each concentration, as well as for positive and negative controls, at least 200 comets were analyzed. The Minimum Information for Reporting Comet Assay (MIRCA) protocol was used to report the results."}, "PBMCs [2]": {"test_system": "PBMCs", "assay": "Cytokinesis block micronucleus cytome (CBMN-cyt) assay", "format": "cell-based, human", "parameters": "unit not given here", "description": "DNA damage events were scored specifically in once-divided binucleated (BN) cells and included micronuclei (MNi), a biomarker of chromosome breakage and/or whole chromosome loss, nucleoplasmic bridges (NPBs), a biomarker of DNA misrepair and/or telomere end-fusions, and nuclear buds (NBUDs), a biomarker of elimination of amplified DNA and/or DNA repair complexes. Cytostatic and cytotoxic effects were examined by calculating the nuclear division index (NDI) and nuclear division cytotoxicity index (NDCI) based on the proportion of mono-, bi-, and multinucleated cells and necrotic and/or apoptotic cell ratios, respectively.\nWhole blood, 400 µL per each treatment, was cultured in PB-MAX™ Karyotyping Medium for 72 h at 37 ^∘C. […] Untreated cultures were set up as negative controls. Cytochalasin B was added to the final concentration of 4.5 µg/mL to block cytokinesis.\nAfter the cultivation period, cultures were centrifuged for 10 min at 1000 rpm (188 × g) and subjected to hypotonic treatment with 0.56% KCl and centrifuged immediately after the hypotonic addition. Hypotonic treatment was followed by three fixations in ice-cold glacial acetic acid + ethanol (1:3) fresh fixative. The fixed lymphocyte solution was dropped on coded microscope slides. Air-dried slides were stained in 5% Giemsa for 7 min. […] Frequencies of mononuclear, binuclear, trinuclear, and quadrinuclear cells, as well as apoptotic and necrotic cells, were scored in a total number of at least 500 cells. All genotoxicity and cytotoxicity parameters were recognized according to the criteria given by Fenech."}}, "note": "Marks after values point to notes of the source that are not given here."}
{"smiles": "CN(C)CCOC(c1ccccc1)c1ccccc1.Cn1c(=O)c2[nH]c(Cl)nc2n(C)c1=O", "note": "[DMH, 2-benzhydryloxy-N,N-dimethylethanamine; 8-chloro-1,3-dimethyl-7H-purine-2,6-dione]", "values": [{"measurement": "Tail intensity (mean ± SD)", "setting": "PBMCs [1]; concentration of DMH 36.36 ng/mL", "result": "2.51 ± 1.77", "unit": "%"}, {"measurement": "Tail intensity (mean ± SD)", "setting": "PBMCs [1]; concentration of DMH 54.55 ng/mL", "result": "2.83 ± 1.54", "unit": "%"}, {"measurement": "Tail intensity (mean ± SD)", "setting": "PBMCs [1]; concentration of DMH 72.73 ng/mL", "result": "3.44 ± 1.13", "unit": "%"}, {"measurement": "Tail intensity (mean ± SD)", "setting": "PBMCs [1]; concentration of DMH 90.91 ng/mL", "result": "3.47 ± 1.08", "unit": "%"}, {"measurement": "Tail intensity (mean ± SD)", "setting": "PBMCs [1]; concentration of DMH 109.9 ng/mL", "result": "3.59 ± 0.79", "unit": "%"}, {"measurement": "BN cells with MNi (mean ± SD)", "setting": "PBMCs [2]; DMH 72.73 ng/mL", "result": "4 ± 1.25^a"}, {"measurement": "BN cells with MNi (mean ± SD)", "setting": "PBMCs [2]; DMH 90.91 ng/mL", "result": "5.75 ± 1.92"}, {"measurement": "BN cells with MNi (mean ± SD)", "setting": "PBMCs [2]; DMH 109.09 ng/mL", "result": "6.5 ± 2.34"}]}
